Drawing on patent publication US20250197499A1 (STEALTH IO, published 2025), this text covers Kd, koff and kon for one molecule.

Assay [1] concerns the target T1, Recombinant human sCD28 Fc-fusion protein (PeproTech, #310-34) (human, UniProt P10747, in part).
T1 construct: Bought protein; also called soluble CD28; not shown: Fc part of the bought fusion; not described
The assay can be described thus: Octet RED96e; sCD28 Fc-fusion loaded at 2,5 µg/ml on protA sensor; sample 588,2 nM; control without CD28-binding Fab. As to the method: (§1) FIG. 5a is a graph of Octet binding studies on sCD28. Recombinant human sCD28 Fc-fusion protein (PeproTech, #310-34) was loaded to protA sensor at 2.5 μg/ml and the binding of each construct was evaluated by Octet RED96e.
(§2) FIG. 5c is a graph depicting the KD values of anti-CD28/sPD-1 constructs on human sCD28 Fc-fusion protein by Octet RED96e. The equilibrium dissociation constant (KD) is calculated as the ratio koff/kₒₙ (with koff:dissociation rates, and kₒₙ:association rates).
(§3) Anti-CD28/sPD-1 antibody fusion constructs were assessed for their ability to bind CD28 by Octet RED96e. Recombinant human sCD28 Fc-fusion protein (PeproTech, #310-34) was loaded to protA sensor at 2.5 μg/ml. […] FIG. 5c is a summary of affinity (measured as Kd, M) for each construct on human CD28.
Background: Biolayer interferometry detects binding as a change in optical thickness at a sensor tip.

Assay [2] addresses T2, Recombinant human PD-L2-His tag (ACROBiosystems, #PD2-H5220) (human, UniProt Q9BQ51 20-219).
T2 construct: Bought protein; also called sPD-L2; human PD-L2-His tag protein; not shown: His tag
T2 sequence (looked up): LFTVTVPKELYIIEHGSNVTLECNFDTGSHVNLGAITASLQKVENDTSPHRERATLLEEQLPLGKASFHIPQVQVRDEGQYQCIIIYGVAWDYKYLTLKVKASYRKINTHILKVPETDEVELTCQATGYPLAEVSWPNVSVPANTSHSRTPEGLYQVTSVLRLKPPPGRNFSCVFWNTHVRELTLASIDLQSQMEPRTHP
The assay can be described thus: Octet RED96e; PD-L2-His loaded at 10 µg/ml on HIS1K sensor; sample 588,2 nM. As to the method:
(§4) FIG. 4a is a graph of Octet binding studies on sPD-L2. Recombinant human PD-L2-His tag (ACROBiosystems, #PD2-H5220) was loaded to His-sensor (HIS1 K (Anti-Penta-His)) at 10 μg/ml and the binding of each construct was evaluated by Octet RED96e.
(§5) FIG. 4c is a graph depicting the KD values of anti-CD28/sPD-1 constructs on human PD-L2-His tag protein by Octet RED96e. The equilibrium dissociation constant (KD) is calculated as the ratio koff/kₒₙ (with koff:dissociation rates, and kₒₙ:association rates).
(§6) Anti-CD28/sPD-1 antibody fusion constructs were assessed for their ability to bind PD-1 ligands, PD-L1 and PD-L2 by Octet RED96e. Recombinant human PD-L1-His tag (ACROBiosystems, #PD1-H5229) or recombinant human PD-L2-His tag (ACROBiosystems, #PD2-H5220) were loaded to His-sensor (HIS1 K (Anti-Penta-His)) at 10 μg/ml. […] FIG. 3c is a summary of affinity (measured as Kd, M) for each construct on human PD-L1. […] FIG. 4c is a summary of affinity (measured as Kd, M) for each construct on human PD-L2.

Assay [3] concerns the target T3, Recombinant human PD-L1-His tag (ACROBiosystems, #PD1-H5229) (human).
T3 construct: Bought protein; also called sPD-L1; human PD-L1-His tag protein; not shown: His tag
The assay can be described thus: Octet RED96e; PD-L1-His loaded at 10 µg/ml on HIS1K sensor; sample 117,6 nM. As to the method: (§7) FIG. 3a is a graph of Octet binding studies on sPD-L1. Recombinant human PD-L1-His tag (ACROBiosystems, #PD1-H5229) was loaded to His-sensor (HIS1K (Anti-Penta-His)) at 10 μg/ml and the binding of each construct was evaluated by Octet RED96e.
(§8) FIG. 3c is a graph depicting the KD values of anti-CD28/sPD-1 constructs on human PD-L1-His tag protein by Octet RED96e. The equilibrium dissociation constant (KD) is calculated as the ratio koff/kₒₙ (with koff:dissociation rates, and kₒₙ:association rates).
as §6

Assay [4] has as its target T3, Recombinant human PD-L1-His tag …. The experiment in a line: Octet RED96e; PD-L1-His loaded at 10 µg/ml on HIS1K sensor; sample 588,2 nM. As to the method:
as §7, §8, §6

Assay [5] deals with T2, Recombinant human PD-L2-His tag …. The experiment in a line: Octet RED96e; PD-L2-His loaded at 10 µg/ml on HIS1K sensor; sample 117,6 nM. As to the method:
as §4, §5, §6

Assay [6] addresses T1, Recombinant human sCD28 Fc-fusion …. The assay can be described thus: Octet RED96e; sCD28 Fc-fusion loaded at 2,5 µg/ml on protA sensor; sample 117,6 nM; control without CD28-binding Fab. As to the method:
as §1, §2, §3

B1: nonvalent (or dummy) Fc/sPD-1 wt (Fc fusion)
chain: DKTHTCPPCPAPEFEGGPSVFLFPPKPKDTLMISRTPEVTCVVVDVSHEDPEVKFNWYVDGVEVHNAKTKPREEQYNSTYRVVSVLTVLHQDWLNGKEYKCKVSNKALPASIEKTISKAKGQPREPQVYTLPPSREEMTKNQVSLTCLVKGFYPSDIAVEWESNGQPENNYKTTPPVLDSDGSFFLYSKLTVDKSRWQQGNVFSCSVMHEALHNHYTQKSLSLSPGGGGSGGGGSGGGGSLDSPDRPWNPPTFSPALLVVTEGDNATFTCSFSNTSESFVLNWYRMSPSNQTDKLAAFPEDRSQPGQDCRFRVTQLPNGRDFHMSVVRARRNDSGTYLCGAISLAPKAQIKESLRAELRVTERRAEVPTAHPSPSPRPAGQFQ
notes: also called Fc/sPD-1 wild type; Non-valent Fc/sPD-1
The Kd is a measure of binding affinity in units of concentration. In general, koff refers to a measure of how fast the partners let go of each other. Broadly, the kon is the rate constant with which the complex forms. As to B1, the Kd turned out to be 47.6 nM in assay [1]; 34.7 nM in assay [2]; 33.9 nM in assay [3]; 56.8 nM in assay [4]; 15 nM in assay [5]; 57.1 nM in assay [6]. The koff was found to be 0.000285 s⁻¹ in assay [1]; 0.00328 s⁻¹ in assay [2]; 0.0145 s⁻¹ in assay [3]; 0.0151 s⁻¹ in assay [4]; 0.00311 s⁻¹ in assay [5]; 0.00105 s⁻¹ in assay [6]. Also, the kon in assay [1] was 5990 M⁻¹ s⁻¹; in assay [2], 94700 M⁻¹ s⁻¹; in assay [3], 428000 M⁻¹ s⁻¹; in assay [4] it was 266000 M⁻¹ s⁻¹; in assay [5] it was 207000 M⁻¹ s⁻¹; in assay [6] it was 18400 M⁻¹ s⁻¹.
